Literature values, collected in patent US20240115576A1, “Caffeine Compositions” (priority 2020, published 2024).

Tested on: opioid receptor
Conditions: in vivo

SMILES: C=CCN1CC[C@]23c4c5ccc(O)c4O[C@H]2C(=O)CC[C@@]3(O)[C@H]1C5 [naloxone, Naloxone]
- duration of action: 30 to 60 min
